Read-outs that look alike come from different tables or passages of the source.
Tested on: SD-strain pregnant rats

COc1cc(OC)nc(C(O)c2ccccc2NS(=O)(=O)C(F)F)n1 (stereo not shown) [Example 1, 2-[(4,6-dimethoxypyrimidine-2-yl)hydroxymethyl]-N-difluoromethanesulfonyl anilide]
Teratology Test results (450 mg/kg/day oral, 6th to 15th day of pregnancy, examined 20th day): Pass

2-[(4,6-dimethoxypyrimidine-2-yl)hydroxymethyl]-6-methoxymethyltrifluoromethanesulfonyl anilide [Example 4]
Teratology Test results (400 mg/kg/day oral, 6th to 15th day of pregnancy, examined 20th day): Pass

COCc1cccc(C(O)c2nc(OC)cc(OC)n2)c1NS(=O)(=O)C(F)F (stereo not shown) [Example 2, 2-[(4,6-dimethoxypyrimidine-2-yl)hydroxymethyl]-6-methoxymethyl-N-difluoromethanesulfonyl anilide]
Teratology Test results (550 mg/kg/day oral, 6th to 15th day of pregnancy, examined 20th day): Pass

COc1cc(OC)nc(C(O)c2ccccc2NS(=O)(=O)C(F)(F)F)n1 (stereo not shown) [Comparative Compound, 2-[(4,6-dimethoxypyrimidine-2-yl)hydroxymethyl]-N-trifluoromethanes ulfonyl anilide, reference compound]
Teratology Test results (rat, in vivo): Fail
external malformation in the gross examination of fetus (rat, in vivo, po): the ectrodactyly and brachydactyly of front leg were seen
fetus weight in the fetal examination (rat, in vivo, po): decrease in fetus weight was seen

CCc1cccc(C(O)c2nc(OC)cc(OC)n2)c1NS(=O)(=O)C(F)F (stereo not shown) [Example 3, 2-[(4,6-dimethoxypyrimidine-2-yl)hydroxymethyl]-6-ethyl-N-difluoromethanesulfonyl anilide]
Teratology Test results (1000 mg/kg/day oral, 6th to 15th day of pregnancy, examined 20th day): Pass

— patent US6458748B1, “Di- or tri-fluoromethanesulfonyl anilide derivatives, process for the preparation of them and herbicides containing them as the active ingredient” (Ihara Chemical Industry Co., Ltd., priority 1998, dated 2002)
